# Experimental data taken from USRE31836E, “Pharmaceutical and dietary composition” (priority 1984, dated 1985).
# Values joined by “and” are separate entries in the source; they are usually repeats but may differ in a detail not shown here. Identical values can stand only once. “Also recorded” adds a separate entry of the source. Like-named read-outs stand apart in the source and are kept apart here.
# Key:
# [1] = tested on: conversion of AA to 2 series PGs (human platelets); test: tissue or blood; type: cell-based
# [2] = tested on: conversion of DGLA to 1 series PGs (human platelets); test: tissue or blood; type: cell-based
# [3] = Homo sapiens, Platelet, read-out: PGE1 level (product of DGLA metabolism)
# [4] = Homo sapiens, Platelet, read-out: PGF1α level (product of DGLA metabolism)
# [5] = Homo sapiens, Platelet, read-out: TXB1 level (product of DGLA metabolism)
smiles,measurement,setting,value
"CCO [Ethyl alcohol, ethyl alcohol]","AA conversion to PGE2, PGF2 and TXB2 (total as % of control)",[1],110 and 90 and 100
same,effect on arachidonate metabolism,[1],little effect on arachidonate metabolism
same,effect on conversion of arachidonate to PGs and particularly thromboxanes,[1],tends to inhibit conversion of arachidonate to PGs and particularly thromboxanes
same,effect on thromboxane B2 formation,[1],inhibition of thromboxane B2 formation
same,variation in AA conversion,[1],not significant
same,minimal effective concentration,"[1]; Homo sapiens, Platelet, read-out: concentration from which there is a significant effect on conversion of AA to 2 series compounds",> 3000 µg/mL
same,"DGLA conversion to PGE1, PGF1 and TXB1 (total as % of control)",[2],160 and 200 and 230
same,effect on DGLA conversion,[2],dose-related and substantial rise
same,effect on conversion of DGLA to 1 series PGs,[2],greatly enhancing their production
same,effect on formation of PGE1,[2],dose dependent rise in formation of PGE 1
same,enhancement in the amount of 14C-DGLA converted to PGE1,[2],up to 60%
same,minimal effective concentration,"[2]; Homo sapiens, Platelet, read-out: threshold of the effect on conversion of DGLA to 1 series PGs",200 to 300 µg/mL
"O=C1O[C@H]([C@@H](O)CO)C(O)=C1O [Vitamin C, ascorbic acid]",activity at 10 µg/mL,[2]; [3],134%
same,activity at 33 µg/mL,[2]; [3],144%
same,activity at 100 µg/mL,[2]; [3],184%
same,activity at 10 µg/mL,[2]; [4],107%
same,activity at 33 µg/mL,[2]; [4],123%
same,activity at 100 µg/mL,[2]; [4],150%
same,activity at 10 µg/mL,[2]; [5],130%
same,activity at 33 µg/mL,[2]; [5],147%
same,activity at 100 µg/mL,[2]; [5],171%
C=CCN1CC[C@]23c4c5ccc(O)c4O[C@H]2C(=O)CC[C@@]3(O)[C@H]1C5 [naloxone],antagonism by naloxone of the opioid effect on 1 series PG formation,[2],abolished by naloxone; also recorded: The effect of l-levorphanol can be blocked by naloxone
same,effect on inhibition of conversion of DGLA to PGE1 by l-levorphanol,[2],reverses an effect of 1-levorphanol
same,reversal of block of PGE1 formation by opiate drugs and opioids,[2],can be reversed by opiate antagonists such as naloxone
same,antagonism by naloxone of the opioid effect on 1 series PG formation,[2]; naloxone with β-endorphin,this effect can also be reversed by naloxone
